The values that follow are results of earlier work, collected in patent publication US7815912B2, “Method of controlled ovarian hyperstimulation and pharmaceutical kit for use in such method” (Ares Trading, S.A., priority 2002, dated 2010).

The conditions of the series: cited from earlier work.

As to “LH isolated from urine: luteinising hormone isolated from female urine”, the “in vivo half-life (t1/2)” value is 10 to 20 min. For the substance “recLH: LH obtained from a recombinant cell line”, the “in vivo half-life (t1/2)” value was 720 to 780 min.
